Measurements reported in patent US20260000700A1, “TARGETED LINEAR CONJUGATES COMPRISING POLYETHYLENEIMINE AND POLYETHYLENE GLYCOL AND POLYPLEXES COMPRISING THE SAME” (TARGIMMUNE THERAPEUTICS AG, priority 2022, published 2026).

Key:
[1] = Polyplex size distribution and PDI by DLS; assay type: physicochemical; conditions: triconjugate:poly(IC) polyplex, 0.1875 mg/mL, HBG pH 7.2, N/P 4; for DLS (nm), DTS1070 / PDI, DTS1070: DTS1070 cuvette, samples 2× diluted; for DLS (nm), ZEN2112 (Quartz) / PDI, ZEN2112 (Quartz): ZEN2112 quartz cuvette
[2] = Polyplex ζ-potential (PALS/ELS); assay type: physicochemical; conditions: triconjugate:poly(IC) polyplex, 0.1875 mg/mL, HBG pH 7.2, N/P 4; DTS1070 cuvette, samples 2× diluted
[3] = system: RencaEGFR M1 H cells (high expression of human EGFR); experiment: Plasmid pCMV-hIFNβ delivery, hIFNβ ELISA of medium; conditions: N/P 3 and 4, 24 hours

| Substance | DLS (nm), DTS1070 [1] [nm] | PDI, DTS1070 [1] | DLS (nm), ZEN2112 (Quartz) [1] [nm] | PDI, ZEN2112 (Quartz) [1] | ζ- pot (mV), DTS1070 [2] [mV] | IFNβ expression and secretion, linear versus random triconjugate [3] |
| --- | --- | --- | --- | --- | --- | --- |
| LPEI−/−[N3:DBCO]CONH-PEG36-[MAL-S]-DUPA | 133 | 0.147 | 140 | 0.120 | 34.5 | – |
| LPEI−/−[N3:DBCO]-PEG36-hEGF | – | – | – | – | – | significant advantage over the respective random delivery vector |
| LPEI−/−[N3:CliCr®]-PEG36-DUPA | – | 0.151 | – | – | 26.2 | – |
| LPEI−/−[N3:BCN]-PEG36-[MAL-S]-DUPA | – | 0.214 | 145 | 0.166 | 33.9 | – |
| LPEI−/−[N3:DBCO]-PEG36-[(NH2)MAL-S]-DUPA | 148 | 0.153 | 154 | 0.151 | 34.5 | – |
| LPEI−/−[N3:DBCO]-PEG36-DUPA | 123 | 0.138 | 140 | 0.120 | 35.2 | – |
| LPEI−/−[N3:DBCO]-PEG36-[S-MAL]-DUPA | – | 0.153 | – | – | 24.7 | – |
| LPEI−/−[N3:SCO]-PEG36-[MAL-S]-DUPA | 132 | 0.153 | 143 | 0.156 | 34.0 | – |
